{"source": "paper PMC9488713", "about": "(ACS chemical biology, 2022)", "origin": "cited, not measured here", "settings": "oral semaglutide formulated with permeation enhancer SNAC; cited from earlier work"}
{"substance": "semaglutide", "values": [{"measurement": "bioavailability after oral administration", "value": 0.8, "unit": "%"}]}
